Measured values from PubChem BioAssay (Tox21).
Where “and” joins values, the source holds several entries; their conditions need not be identical. Equal entries are not always repeated. The list shows a part of the results, in another mix than the full data. Results filed as inconclusive are left out. Calls of active or inactive are those of the source. Calls follow the shape of the dose curve; as a rule, active = well fitted activation curve with a large enough effect in the repeat runs; inconclusive = weak or mixed curves; inactive = flat fitted curve, though single readings scatter.

test: A CellTox Green Cytotoxicity Assay to monitor cytotoxicity in HEK293 cells - 24 hour (AID 1224875); details: CellTox Green fluorescence; series mostly up to 76.8 µM; activity change: at the top concentration; also: nearly all actives have a fitted effect of over 45% in size
Description: National Center for Advancing Translational Sciences [NCATS]
NIH Chemical Genomics Center [NCGC]
U.S. Environmental Protection Agency [EPA]
National Institutes of Environmental Health Sciences [NIEHS]
National Toxicology Program [NTP]
Cell-based models are critical for drug discovery. Determining the natural cytotoxic effects resulting from test compounds is an essential research activity. A CellTox Green Cytotoxicity Assay to monitor cytotoxicity in real time of continues cell culture during 40 hours of the compound treatment was used to screen Tox21 10K library compounds in Hek293 cells. CellTox Green Cytotoxicity Assay is a nonlytic, homogeneous, biofluorescent method to measure cytotoxicity in cell culture after experimental manipulation. The assay system uses a proprietary asymmetric cyanine dye that is excluded from viable cells but preferentially stains the dead cell's DNA. […] Viable cells produce no appreciable increases in fluorescence. Therefore, the fluorescence signal produced by the binding interaction with dead cell DNA is proportional to cytotoxicity.
The mixture of Hek293 cell suspension and reagents were dispensed at 600cells/6 ul/well in 1536-well tissue culture treated black solid bottom plates using a Multidrop dispenser. After the assay plates were incubated at a 37 C/5% CO2 incubator for 5 hours, 23 nL of compounds dissolved in DMSO, positive and negative controls was transferred to the assay plate by a pintool work station. The plates were incubated at 37 C for 40 hours. The fluorescence intensity were measured at 0h, 8h, 16h, 24h, 32h and 40h time points using ViewLux plate reader during compound treatment.
% is scaled to controls: 0 for no effect and ±100 for the full control effect; potency is read from the fitted curve at half-maximal effect.

Row | SMILES | Potency | activity change
1 | O=[As]c1ccccc1 (centres undefined) | active: 616 nM | –
2 | O=C1C2CC=CCC2C(=O)N1SC(Cl)(Cl)C(Cl)Cl (centres undefined) | active: 39.2 µM and active: 7.76 µM | –
3 | CCCCC(CC)CO[P+](=O)OCC(CC)CCCC (centres undefined) | – | inactive: -15.8%
4 | O=C(Cl)OCCOC(=O)Cl | – | inactive: -4.75%
5 | CN(N=O)C(=N)N[N+](=O)[O-] | – | inactive: 6.99%
6 | CCCCO[P+](=O)OCCCC | inactive | –
7 | O=[p+]1oc2ccccc2c2ccccc21 (centres undefined) | – | inactive: 19.5%
8 | O=P(Cl)(Cl)c1ccccc1 | – | inactive: -19.6%
9 | NC(=O)Nc1ccc([As](=O)(O)O)cc1 | inactive | –
10 | O=C(Cl)Oc1ccccc1 | – | inactive: -3.74%
11 | CN(C(=O)Cc1ccccc1)[C@H]1CC[C@@]2(CCCO2)C[C@@H]1N1CCCC1 | – | inactive: 7.2% [at 35.3 µM, active compounds read high]
12 | CCOC(=O)Cl | – | inactive: -0.387%
13 | CN(C(=O)Cc1ccc(Cl)c(Cl)c1)[C@H]1CC[C@@]2(CCCO2)C[C@@H]1N1CCCC1 | – | inactive: -16.7% [at 35.3 µM, active compounds read high]
14 | COC(=O)Cl | – | inactive: -0.12%
15 | Cc1cc([N+](=O)[O-])cc([N+](=O)[O-])c1O | inactive | –
16 | Cc1cc([N+](=O)[O-])c(O)c([N+](=O)[O-])c1 | – | inactive: -13.7%
17 | CC(C)OP(=S)(OC(C)C)SCCNS(=O)(=O)c1ccccc1 | – | inactive: -4.37%
18 | CCOP(=S)(CC)Sc1ccccc1 (centres undefined) | – | inactive: 0.258%
19 | CCC(C)(OOC(C)(C)C)OOC(C)(C)C | – | inactive: -5.94% [at 15.8 µM, active compounds read high]
20 | CCNC(C)Cc1ccc2c(c1)OCO2 (centres undefined) | – | inactive: 0.421%
21 | ClP(Cl)c1ccccc1 | – | inactive: 3.93%
22 | O=P(Cl)(Oc1ccccc1)Oc1ccccc1 | – | inactive: 5.59%
23 | O=[N+]([O-])c1ccc([N+](=O)[O-])cc1 | – | inactive: -26.1%
24 | O=[N+]([O-])c1ccc(S(=O)(=O)O)c([N+](=O)[O-])c1 | – | inactive: -0.735%
25 | CC(C)CCCCCCCOP(OCCCCCCCC(C)C)Oc1ccccc1 | – | inactive: 0.146%
26 | CN(C(=O)Cc1cccc2occc12)[C@H]1CC[C@@]2(CCCO2)C[C@@H]1N1CCCC1 | – | inactive: -6.21%
27 | O=[P+](Oc1ccccc1)Oc1ccccc1 | – | inactive: 0.128%
28 | COP(=S)(Cl)OC | – | inactive: -9.64%
29 | CCCCOP(OCCCC)OCCCC | – | inactive: -4.79%
